# scFv variants of Ab-95 (light chain) against a SARS-CoV-2 spike peptide

All variants were tested on one target, the spike HR2 peptide PDVDLGDISGINAS (SARS-CoV-2).

Each scFv is VH, three GGGGS repeats, VL, as in the parent Ab-95, and differs from it in the CDRs of the light chain only.
VH: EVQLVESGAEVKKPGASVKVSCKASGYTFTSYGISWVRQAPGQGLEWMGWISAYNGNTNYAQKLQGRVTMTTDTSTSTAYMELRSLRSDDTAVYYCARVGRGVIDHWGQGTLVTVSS
VL: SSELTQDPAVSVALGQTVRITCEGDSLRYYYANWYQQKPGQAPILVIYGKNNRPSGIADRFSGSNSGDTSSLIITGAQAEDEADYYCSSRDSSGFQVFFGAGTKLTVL

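The starting antibody came from a phage panning campaign against this peptide. Variants in AAYL52 differ from the parent at up to three CDR positions; double and triple changes were sampled at random. In AlphaSeq, yeast of one mating type display the scFv and yeast of the other type display the target. After mating in shaken culture at 30 °C for 16 h, diploids were selected and their barcode pairs sequenced. Scores were corrected for input abundance and mapped to Kd with protein pairs of known affinity run in the same pool. The assay was run in three technical replicates.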

Positions count from residue 1 of the parent VL; Y30Q puts Q in place of Y. Each Kd is an estimate from the mating assay, the geometric mean of the replicates in which the pair was seen; lower is stronger. An entry "not detected" has no value in the source: the pair was not observed among the diploids in any replicate. This suggests poor binding but is not conclusive. Entries are sorted by rising average, undetected variants last.

{"changes": "Y30Q+S93E+F95L", "apparent Kd": "100 nM", "seen in": "3 of 3"}
{"changes": "Y29T+S88C+Q96V", "apparent Kd": "180 nM", "seen in": "3 of 3"}
{"changes": "K50L+S55D+V97P", "apparent Kd": "250 nM", "seen in": "3 of 3"}
{"changes": "E23D+A32T+S89V", "apparent Kd": "370 nM", "seen in": "3 of 3"}
{"changes": "E23Q+S88I", "apparent Kd": "540 nM", "seen in": "3 of 3"}
{"changes": "S26L+S88V+S92C", "apparent Kd": "1.3 µM", "seen in": "1 of 3"}
{"changes": "S55F+S89P+G94Q", "apparent Kd": "1.4 µM", "seen in": "3 of 3"}
{"changes": "S26E+F95N+Q96Y", "apparent Kd": "2.1 µM", "seen in": "1 of 3"}
{"changes": "G24S+N51H+S55H", "apparent Kd": "2.6 µM", "seen in": "1 of 3"}
{"changes": "S26K+S89Y+S93K", "apparent Kd": "2.7 µM", "seen in": "2 of 3"}
{"changes": "R28A+N52R+Q96N", "apparent Kd": "3.2 µM", "seen in": "3 of 3"}
{"changes": "S26R+G49Y+F98S", "apparent Kd": "3.8 µM", "seen in": "1 of 3"}
{"changes": "S26Y+N51G+R53P", "apparent Kd": "7.5 µM", "seen in": "1 of 3"}
{"changes": "G49M+S92G+V97E", "apparent Kd": "8.9 µM", "seen in": "3 of 3"}
{"changes": "A32Q+R53D+F98P", "apparent Kd": "13 µM", "seen in": "3 of 3"}
{"changes": "N33P+G49A+V97D", "apparent Kd": "14 µM", "seen in": "2 of 3"}
{"changes": "S26H+Y29G+R53F", "apparent Kd": "32 µM", "seen in": "3 of 3"}
{"changes": "G24F+G49W+G94Y", "apparent Kd": "65 µM", "seen in": "2 of 3"}
{"changes": "A32Q+G49I+V97T", "apparent Kd": "81 µM", "seen in": "1 of 3"}
{"changes": "N52D+P54S+G94K", "apparent Kd": "not detected", "seen in": "0 of 3"}
{"changes": "S26I+N52D+G94C", "apparent Kd": "not detected", "seen in": "0 of 3"}
{"changes": "N33A+Q96P+F98A", "apparent Kd": "not detected", "seen in": "0 of 3"}

2 of these entries, quoted again:

changes,apparent Kd,seen in
Y29T+S88C+Q96V,180 nM,3 of 3
N52D+P54S+G94K,not detected,0 of 3

Parent in this assay: reference entry 200 nM, copy in this library 180 nM. Nonspecific signal, from three strains lacking the peptide, appeared in 28% of pairings of library AAYL52, centred on 8.2 µM (5% of these signals below 800 nM); values are not corrected for it.

The measurements come from Engelhart et al. 2022 (doi:10.1038/s41597-022-01779-4) through the FLAb antibody collection.